Earlier results, collected in patent publication US20120135104A1, “Enhanced Absorption of Omega Fatty Acid Oils” (priority 2010, published 2012).

Settings: single emulsifier

Substance: tocopheryl polyethylene glycol succinate
- HLB value: about 13
